Values quoted from earlier work as cited in paper PMC6398608 (Nature medicine, 2018).

By UniProt entry, the sequences of proteins in these tests, tags left out. Residues count along the entry.
UniProt P01589, 22-240, chain 1 of 3: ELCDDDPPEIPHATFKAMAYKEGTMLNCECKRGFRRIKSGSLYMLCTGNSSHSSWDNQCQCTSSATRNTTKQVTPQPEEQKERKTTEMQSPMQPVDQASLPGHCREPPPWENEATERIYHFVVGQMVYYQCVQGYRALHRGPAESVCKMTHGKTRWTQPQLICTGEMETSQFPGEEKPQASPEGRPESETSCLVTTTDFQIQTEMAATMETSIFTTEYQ
UniProt P60568, 21-153: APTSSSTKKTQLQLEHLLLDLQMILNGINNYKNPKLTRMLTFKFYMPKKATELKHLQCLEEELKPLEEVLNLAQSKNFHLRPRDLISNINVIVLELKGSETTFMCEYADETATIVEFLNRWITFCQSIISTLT

Biological target: IL-2 receptor alpha/beta/gamma (Homo sapiens) (UniProt P01589)
Settings: cited from earlier work

IL-2 (from UniProt P60568)
Kd: 0.01 nM
